From patent US20250034579A1, “METHODS AND COMPOSITIONS FOR GENETICALLY MODIFYING HUMAN GUT MICROBES” (Cornell University, priority 2021, published 2025)

Test system: Clostridia microbes
Settings: 92 Clostridia microbes; TSAB or BHIB plates with 15 μg/mL thiamphenicol

In the case of `CS(=O)(=O)c1ccc([C@@H](O)[C@@H](CO)NC(=O)C(Cl)Cl)cc1` [thiamphenicol], the sensitivity to thiamphenicol is reported as “all sensitive”.
